Test results taken from US4137380A, “Polyester granules and process” (priority 1972, dated 1979).

Assay: Relative water solubility of amine
Conditions: amine base

**Q.** Which “Rel. W. Sol” value does the source give for `Nc1ccccc1N` [o-phenylene diamine] here?
**A.** The value was “insoluble”.
